The target in assay [1] is human recombinant GST-PTP1B, non-mutated (Cys215) (Homo sapiens, UniProt P18031). The experiment in a line: GST-PTP1B SPA binding assay with non-mutated (Cys215) enzyme. To be noted: read-out: IC50, Non-Mutated.
The target in assay [2] is human recombinant GST-PTP1B, mutated (Ser215) (Homo sapiens, UniProt P18031, C215S). The experiment in a line: GST-PTP1B SPA binding assay with mutated enzyme (Ser215). To be noted: read-out: IC50, Mutated.

Amino acid sequences for entries named in this document (tags omitted). A change or cut given only in a name is not applied to a line headed by its entry. Residues count along the entry.
UniProt P18031, 1-320 C215S limits assumed: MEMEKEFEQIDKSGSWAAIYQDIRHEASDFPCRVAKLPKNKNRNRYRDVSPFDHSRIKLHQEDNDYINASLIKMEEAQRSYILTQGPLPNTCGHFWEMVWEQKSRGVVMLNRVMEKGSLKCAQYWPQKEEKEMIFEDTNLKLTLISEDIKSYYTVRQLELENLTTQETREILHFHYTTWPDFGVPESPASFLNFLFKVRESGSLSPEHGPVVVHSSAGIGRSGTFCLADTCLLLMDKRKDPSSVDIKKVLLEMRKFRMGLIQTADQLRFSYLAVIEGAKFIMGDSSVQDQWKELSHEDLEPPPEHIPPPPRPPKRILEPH
UniProt P18031, 1-320 limits assumed, stated change not applied: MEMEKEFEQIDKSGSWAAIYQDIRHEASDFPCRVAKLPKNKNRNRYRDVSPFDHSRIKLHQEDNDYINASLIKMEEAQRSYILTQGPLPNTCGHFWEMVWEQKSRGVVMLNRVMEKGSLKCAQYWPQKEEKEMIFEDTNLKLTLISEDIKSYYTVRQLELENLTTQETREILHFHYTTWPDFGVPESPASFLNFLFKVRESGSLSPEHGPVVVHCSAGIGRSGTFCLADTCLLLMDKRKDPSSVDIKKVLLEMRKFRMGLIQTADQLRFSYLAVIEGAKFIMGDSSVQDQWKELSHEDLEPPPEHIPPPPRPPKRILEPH

The source of these data is patent US6114132A, “Prosphatase binding assay” (Merck Frosst Canada & Co., priority 1997, dated 2000).

With `CC(C)C[C@H](NC(=O)[C@H](Cc1ccc(C(F)(F)P(=O)(O)O)cc1)NC(=O)[C@H](CCC(=O)O)NC(=O)[C@H](CC(=O)O)NC(=O)[C@H](C)NC(=O)[C@@H](N)CC(=O)O)C(N)=O`, the results for the IC50 in assay [1] and in assay [2] were 400 nM and 100 nM, respectively.

The term IC50 denotes the concentration needed to halve the response being measured.
